# Ab-14 light chain CDR variants: yeast mating affinities

Binding partner: SARS-CoV-2 spike HR2 peptide, sequence PDVDLGDISGINAS.

The variants keep the heavy chain, the linker and the frameworks of Ab-14 (scFv order VH, a (GGGGS)3 linker, VL).
VH: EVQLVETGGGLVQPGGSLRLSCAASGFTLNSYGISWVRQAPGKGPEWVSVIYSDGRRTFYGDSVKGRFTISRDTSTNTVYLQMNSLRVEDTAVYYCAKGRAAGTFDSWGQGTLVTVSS
VL: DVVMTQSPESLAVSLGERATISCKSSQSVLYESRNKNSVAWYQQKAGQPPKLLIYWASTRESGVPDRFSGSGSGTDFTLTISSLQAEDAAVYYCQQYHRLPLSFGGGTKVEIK

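The parent was found by panning a naive human phage display library on the peptide. The variants were designed computationally from a first round of random CDR variants and then made and measured. Group labels follow the data file (Ctrl: baseline library sampled from a position-specific scoring matrix, with some repeated check sequences; En: ensemble of fine-tuned language models; GP: Gaussian process model; HC: hill climbing; Gen: genetic algorithm; Gibbs: Gibbs sampling; a sequence that several methods proposed may carry one label only). Affinity was read by AlphaSeq, a pooled yeast mating assay with surface-displayed partners. The frequency of each diploid, read from paired DNA barcodes, reflects how well the two displayed proteins bind. A regression on co-assayed BCL2-family reference pairs converts the normalised counts of each replicate to an apparent Kd. Each pool was mated in six replicate cultures.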

The parent's light chain CDRs are KSSQSVLYESRNKNSVA, WASTRES, QQYHRLPLS; each variant's own CDRs replace them letter for letter.
This list holds designs with more than six substitutions.
Each Kd is an estimate from the mating assay, the geometric mean of the replicates in which the pair was seen; lower is stronger.
Where no diploid with the target was found in any replicate, the entry reads "no signal": below detection, most likely a poor binder, though not proof of it.
A sequence measured in both rounds can read differently, since the two assays cover different ranges.
Empty control strains, which show no peptide, gave a signal in 4% of pairings with all light chain designs; the median was 430 nM and 95% of these signals were weaker than 38 nM. No background was subtracted. For each scFv, signals with the empty controls are counted beside the result.
The authors averaged sequences with at least three values out of six and counted those with two or fewer as poor binders.
The parent sequence was in this pool as ten entries: three were never detected, three once, and four in most replicates, with averages from 2.2 nM to 240 nM.

With KSPQSVLGMDMMKNSVA | QASQRES | QQYHRLPLS [GP_Gibbs] the result was 1.8 nM (6 of 6 replicates; controls 0 of 18).
With KISMTSENSLKNRNSVA | ELVTRMA | QQYNRLPLS [En_Gen] the result was 3.0 nM (6 of 6 replicates; controls 0 of 18).
With KLLQEVTGHMRNRNSVA | HNSTRED | QQYDRLPLS [En_HC] the result was 27 nM (4 of 6 replicates; controls 1 of 18).
With QLAVDRLMEYTMGDAIA | GKTLRVD | QQYARLPLS [En_Gibbs] the result was 1.3 nM (6 of 6 replicates; controls 0 of 18).
With KLYQSEWYESRMKNNVA | NASLRES | QQYHRLPLS [GP_Gibbs] the result was 6.8 nM (6 of 6 replicates; controls 0 of 18).
With RLWQQMYGFNIHANAIA | EGKERTW | QQYFRLPLS [En_Gibbs] the result was no signal (0 of 6 replicates; controls 1 of 18).
With QIYQAMHTLSQMKDNVA | DVNERGT | QQYYRLPLS [En_Gen] the result was 1.2 nM (6 of 6 replicates; controls 0 of 18).
With TISQSTYIETFNKNNVA | QTSTREE | QDYDRLPLS [En_HC] the result was 3.4 nM (6 of 6 replicates; controls 2 of 18).
With MVTQMAMSGMTNKRSVA | NANTRED | QQYHRLPLM [En_Gen] the result was 750 pM (6 of 6 replicates; controls 2 of 18).
With KISQMIRVGTTASNSIA | EEVTRAK | QQYHRLPLA [En_Gen] the result was 49 nM (6 of 6 replicates; controls 0 of 18).
With IVSQMMLWGMHAKNSIA | EAVTRLN | QQYDRLPLF [En_Gen] the result was 320 nM (4 of 6 replicates; controls 1 of 18).
With TISQITGLFTQNINNVA | EVSTRLN | QQYDRLPLA [En_Gen] the result was 16 nM (6 of 6 replicates; controls 0 of 18).
With KLQQESNNMNDMQNSVA | EESMVQY | QHYWRLPLT [En_Gibbs] the result was no signal (0 of 6 replicates; controls 0 of 18).
With HIQDDAGGLREQFNSVA | STEERSY | QQYHRLPLS [En_Gibbs] the result was 1.1 nM (6 of 6 replicates; controls 0 of 18).
With MISQLINMGSFAINSVA | QASLREE | QQYDRLPLM [En_Gen] the result was 3.8 nM (6 of 6 replicates; controls 0 of 18).
With TIGATLMQGVRNSSNVA | EVSERLN | QQYDRLPLI [En_Gen] the result was 390 nM (4 of 6 replicates; controls 1 of 18).
With KLSLVLGVSKQSEKNIA | NTRLKVA | QQYDRLPLT [En_Gibbs] the result was 39 nM (5 of 6 replicates; controls 1 of 18).
With HILQNVMYESRNRNSVA | HQSTRED | QQYHSLPLS [En_HC] the result was 7.1 nM (6 of 6 replicates; controls 1 of 18).
With MISDLTMYGLRNVNSVA | DLSTRGS | QQYDRLPLS [En_HC] the result was 8.9 nM (6 of 6 replicates; controls 2 of 18).
With SVRHPFQGENGRKASVA | NATIRDH | QQYFRLPLF [En_Gibbs] the result was 1.5 nM (6 of 6 replicates; controls 4 of 18).
With KLMQSVLEESRNKNSVA | GASTRES | QQVHISPNS [Ctrl] the result was no signal (0 of 6 replicates; controls 0 of 18).
With KLSYSVMLESRNKNAVA | NASTRMS | QDYHRLPLS [GP_Gibbs] the result was 640 pM (6 of 6 replicates; controls 2 of 18).
With SMFEKEYAELQNENNIA | DTTARMV | QHYFRLPLL [En_Gibbs] the result was 13 nM (5 of 6 replicates; controls 0 of 18).
With DLTVSDNYGSQLENNIA | QGVEKCE | QQYSRLPLA [En_Gibbs] the result was 2.2 nM (6 of 6 replicates; controls 1 of 18).
With TLGQSTLMETRNKNNVA | QMSTREK | QQYHRLPLS [En_HC] the result was 2.5 nM (6 of 6 replicates; controls 0 of 18).
With KLMNSLDAFHSWEDNIA | ETEIKVA | QQYYHLPLT [En_Gibbs] the result was 37 nM (6 of 6 replicates; controls 0 of 18).
With KLQQSELMESRNMNSVA | HASTRES | QDYHRLPLS [GP_Gibbs] the result was 850 pM (6 of 6 replicates; controls 2 of 18).
With KLTHLSFVHDRQKNNVA | DLNRKAA | QQYNRLPLT [En_Gibbs] the result was 220 nM (6 of 6 replicates; controls 3 of 18).
With KLSQSFWYEERNPNSVA | NASKRES | QQYHRLPLS [GP_Gibbs] the result was 380 pM (6 of 6 replicates; controls 1 of 18).
With KVSWSWLYESRVWNSVA | NASLRES | QQYHRLPLS [GP_Gibbs] the result was 6.2 nM (6 of 6 replicates; controls 0 of 18).
With KVSEFMRGLMMRKDSIA | DNVTREN | QQYDRLPLS [En_Gen] the result was 5.7 µM (3 of 6 replicates; controls 1 of 18).
With MLGDVAQGLSRKHNSVA | DNSTRES | QQYDRLPLS [En_Gen] the result was 590 nM (3 of 6 replicates; controls 2 of 18).
With MISQLYNMGTFAINSVA | QASLRYN | QQYDRLPLM [En_Gen] the result was no signal (0 of 6 replicates; controls 0 of 18).
With KLSGIMRLESKNKSNIA | EVNERSE | QQYDRLPLS [En_Gen] the result was 10 nM (6 of 6 replicates; controls 2 of 18).

Source: Li et al. 2023 (doi:10.1038/s41467-023-39022-2), MIT Lincoln Laboratory and A-Alpha Bio; data file from the FLAb repository.